Experimental data: patent publication US11584765B2 (priority 2017, dated 2023)

Tested on: C57BL/6 mice
Experiment: Antinociception, 55° C. warm-water tail-flick test
Type: in vivo
Settings: s.c. administration, 55° C. water

With `CCOCC1(CCc2ccccc2)CCN(C2(c3ccc(C)nc3)CCCCC2)CC1` the “ED50 (mg/kg) at 30 min on C57BL/6 mice in Warm-water Tail-flick Test” value was “++ (++ indicates ED 50 </= 10 mg/kg)”.
